Results from PubChem BioAssay AID623 (Vanderbilt High Throughput Screening Facility, 2007).
This is a selection; strong and weak results do not stand in their true shares. The source made the active and inactive calls.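 The calls were made as follows: active = NADPH fluorescence slope more negative than the mean of all samples by about 3 SD, 99.7% confidence; inactive = the rest.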

Chains of the proteins cited; added tags and fusions are not shown.
UniProt P62483, whole entry: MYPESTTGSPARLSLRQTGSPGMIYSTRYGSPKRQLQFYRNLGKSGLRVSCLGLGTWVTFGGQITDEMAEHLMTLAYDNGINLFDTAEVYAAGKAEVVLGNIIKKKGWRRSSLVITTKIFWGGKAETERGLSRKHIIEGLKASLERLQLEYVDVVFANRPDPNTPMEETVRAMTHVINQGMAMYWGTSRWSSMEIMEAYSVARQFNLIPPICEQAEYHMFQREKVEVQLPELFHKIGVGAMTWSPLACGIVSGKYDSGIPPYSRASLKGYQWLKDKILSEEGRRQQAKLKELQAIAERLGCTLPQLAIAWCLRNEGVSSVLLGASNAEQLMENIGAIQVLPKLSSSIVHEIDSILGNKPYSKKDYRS

Target: Voltage-gated potassium channel subunit beta-2 (Rattus norvegicus) (UniProt P62483)
Test: KvBeta positive modulators, primary screen, biochemical, NADPH fluorescence (AID 623);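 also: fluorescence intensity change per second fitted from 20 to 320 s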
Settings: Recombinant KvBeta, NADPH fluorescence decrease slope, 10 min; at 10 µM; stronger effect = lower value

Row | Structure (SMILES) | NADPH fluorescence slope
1 | Cc1ccc(C)c(NP(C)(=O)Oc2ccccc2)c1 (stereo unspecified) | inactive: 3.4e-06
2 | CP(=S)(Nn1cnnc1)Oc1ccccc1 (stereo unspecified) | inactive: -4.1e-06
3 | CCN(CC)CC(O)COC(=O)C(O)(c1ccccc1)C1CCCCC1 (stereo unspecified) | inactive: -9.8e-05
4 | CP(=O)(Nc1ccccn1)Oc1ccccc1 (stereo unspecified) | inactive: -0.000116
5 | CP(=O)(Nc1ccc2c(c1)OCCO2)Oc1ccccc1 (stereo unspecified) | inactive: -2.1e-05
6 | CN(C)CCOC(=O)C(O)(c1ccccc1)C1CCCCC1 (stereo unspecified) | inactive: -0.000222
